The text below walks through data of EP4768477A1 (Yichang Humanwell Pharmaceutical Co., Ltd., priority 2024, dated 2025).

Protein sequences, listed by entry. Tags and fused reporters are not part of them. Lines headed by an entry give the natural chain unless they say otherwise; changes in a name come on top.
UniProt P41145: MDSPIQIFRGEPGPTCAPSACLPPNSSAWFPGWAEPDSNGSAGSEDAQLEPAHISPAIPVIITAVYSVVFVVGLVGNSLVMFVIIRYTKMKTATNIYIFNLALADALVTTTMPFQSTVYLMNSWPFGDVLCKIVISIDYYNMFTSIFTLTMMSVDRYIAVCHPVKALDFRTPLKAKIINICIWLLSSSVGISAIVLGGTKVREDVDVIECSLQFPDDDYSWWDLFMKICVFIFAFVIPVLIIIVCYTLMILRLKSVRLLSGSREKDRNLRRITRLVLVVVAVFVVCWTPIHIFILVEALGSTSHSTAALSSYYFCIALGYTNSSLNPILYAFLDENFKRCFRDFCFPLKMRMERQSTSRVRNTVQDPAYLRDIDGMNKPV
UniProt P41146: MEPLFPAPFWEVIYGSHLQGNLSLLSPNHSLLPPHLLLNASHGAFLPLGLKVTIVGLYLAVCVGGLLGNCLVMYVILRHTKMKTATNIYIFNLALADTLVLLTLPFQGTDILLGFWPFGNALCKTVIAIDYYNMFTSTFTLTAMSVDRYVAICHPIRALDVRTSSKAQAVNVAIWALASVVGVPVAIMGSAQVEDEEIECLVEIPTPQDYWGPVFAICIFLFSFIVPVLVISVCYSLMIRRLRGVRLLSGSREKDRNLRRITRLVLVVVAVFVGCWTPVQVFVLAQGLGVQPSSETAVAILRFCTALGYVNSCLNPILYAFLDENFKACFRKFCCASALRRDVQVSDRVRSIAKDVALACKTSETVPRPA

Assay [1] has as its system formalin-induced inflammatory pain model. The assay can be described thus: Pharmacodynamic test in formalin-induced inflammatory pain model. It is filed as in vivo. To be noted: male SD rats, 0-60 minutes after formalin, mean ± standard deviation, n=6.
The target in another assay is hKOR (Homo sapiens, UniProt P41145). The assay can be described thus: Agonistic function, cAMP method, 293-KOR cells. To be noted: for hKOR Emax (%): forskolin; for EC50: read-out: hKOR EC50, forskolin.
The target in a further assay is hNOPr (ORL-1 receptor) (Homo sapiens, UniProt P41146). Nature of the assay: Agonistic function, cAMP method, 293-NOPr cells. To be noted: for hNOPr (ORL-1 receptor) Emax (%): forskolin; for EC50: read-out: hNOPr (ORL-1 receptor) EC50, forskolin.

Take `CNC(=O)Cn1c(=O)n(C2CCN([C@H]3CC[C@@H](C(C)C)CC3)CC2)c2cc(F)c(F)cc21` (relative stereo): the MPE% in assay [1] (1 mg/kg s.c) was 100.5±5.7 %. Moreover, at hKOR, the “hKOR Emax (%)” value is recorded as 103.00% and the EC50 was determined as 1720 nM. In addition, at hNOPr (ORL-1 receptor), the “hNOPr (ORL-1 receptor) Emax (%)” value is listed as 103.10% and the EC50 amounted to 0.1 nM.

Take `CS(=O)(=O)Cn1c(=O)n(C2CCN(C3CCC4(CC3)CC4)CC2)c2cc(F)c(F)cc21`: in assay [1] (1 mg/kg s.c), the MPE% is on record as 64.5±15.3 %. In addition, at hKOR, the “hKOR Emax (%)” value came out at 82.79% and the EC50 worked out at 1150 nM. On hNOPr (ORL-1 receptor), the “hNOPr (ORL-1 receptor) Emax (%)” value is listed as 96.53% and the EC50 worked out at 9.2 nM.

`CCNC(=O)Cn1c(=O)n(C2CCN(C3CCC(C)(C)CC3)CC2)c2cc(F)c(F)cc21`: on hKOR, the “hKOR Emax (%)” value is reported as 68.93% and the EC50 amounted to 474 nM. Further, at hNOPr (ORL-1 receptor), the “hNOPr (ORL-1 receptor) Emax (%)” value is recorded as 104.70% and the EC50 was 21.7 nM.

As to `CC(C)C1CCC(N2CCC(N3C(=O)N(CCNS(C)(=O)=O)Cc4cc(F)c(F)cc43)CC2)CC1` (centres unmarked), the EC50 on hKOR was 561 nM; at hNOPr (ORL-1 receptor), 6.47 nM.

In the case of `CS(=O)(=O)Cn1c(=O)n(C2CCN(C3CCC4(CCC4)CC3)CC2)c2cc(F)c(F)cc21`, the MPE% in assay [1] (1 mg/kg s.c) came to 55.8±14.8 %. Also, at hKOR, the “hKOR Emax (%)” value is recorded as 49.84% and the EC50 amounted to 478 nM. Besides, at hNOPr (ORL-1 receptor), the “hNOPr (ORL-1 receptor) Emax (%)” value is on record as 100.3% and the EC50 turned out to be 3.5 nM.

As for `CNC(=O)Cn1c(=O)n(C2CCN(C3CCC4(CC3)CC4)CC2)c2cc(F)c(F)cc21`, on hKOR, the “hKOR Emax (%)” value is reported as 56.76% and the EC50 was 5360 nM. Also, at hNOPr (ORL-1 receptor), the “hNOPr (ORL-1 receptor) Emax (%)” value was 100.00% and the EC50 was 7.35 nM.

`CC1(C)CCC(N2CCC(n3c(=O)n(CS(C)(=O)=O)c4cc(F)c(F)cc43)CC2)CC1`: the MPE% in assay [1] (3 mg/kg s.c) is 78.2±21.8 %. Also, on hKOR, the “hKOR Emax (%)” value came to 70.20% and the EC50 was determined as 715 nM. In addition, on hNOPr (ORL-1 receptor), the “hNOPr (ORL-1 receptor) Emax (%)” value is 99.74% and the EC50 was found to be 10.7 nM.

On to `CC1(C)CCC(N2CCC(n3c(=O)n(CCS(N)(=O)=O)c4cc(F)c(F)cc43)CC2)CC1`, for which, at hKOR, the “hKOR Emax (%)” value amounted to 73.3% and the EC50 was determined as 2060 nM. Moreover, at hNOPr (ORL-1 receptor), the “hNOPr (ORL-1 receptor) Emax (%)” value was found to be 98.3% and the EC50 was determined as 24.5 nM.

In the case of `CCS(=O)(=O)NCCN1Cc2cc(F)c(F)cc2N(C2CCN([C@H]3CC[C@@H](C(C)C)CC3)CC2)C1=O` (relative stereo), the EC50 on hKOR worked out at 601 nM; at hNOPr (ORL-1 receptor), 5.85 nM.

Regarding `CNC(=O)Cn1c(=O)n(C2CCN(C3CCC(C)(C)CC3)CC2)c2cc(F)c(F)cc21`, on hKOR, the “hKOR Emax (%)” value came out at 57.26% and the EC50 was determined as 811 nM. Also, on hNOPr (ORL-1 receptor), the “hNOPr (ORL-1 receptor) Emax (%)” value is listed as 104.10% and the EC50 was 3.12 nM.

In assay [1] (3 mg/kg s.c), `CC(C)[C@H]1CC[C@@H](N2CCC(n3c(=O)n(CC(=O)N(C)C)c4cc(F)c(F)cc43)CC2)CC1` (relative stereo) came in with an MPE% of 79.0±4.6 %. For the same compound, at hKOR, the “hKOR Emax (%)” value came to 55.37% and the EC50 was determined as 2250 nM. For the same compound, at hNOPr (ORL-1 receptor), the “hNOPr (ORL-1 receptor) Emax (%)” value turned out to be 92.25% and the EC50 came out at 8.77 nM.

For the compound `CC1(C)CCC(N2CCC(n3c(=O)n(CS(C)(=N)=O)c4cc(F)c(F)cc43)CC2)CC1` (centres unmarked), at hKOR, the “hKOR Emax (%)” value is on record as 84.67% and the EC50 was found to be 491 nM. In addition, at hNOPr (ORL-1 receptor), the “hNOPr (ORL-1 receptor) Emax (%)” value was 99.5% and the EC50 stood at 48.6 nM.

`CNC(=O)Cn1c(=O)n(C2CCN(C3CCC(C)(C)CC3)CC2)c2cc(Cl)c(F)cc21`: at hKOR, the “hKOR Emax (%)” value came to 56.4% and the EC50 was found to be 2260 nM. Also, at hNOPr (ORL-1 receptor), the “hNOPr (ORL-1 receptor) Emax (%)” value stood at 84.3% and the EC50 was 19.6 nM.
